Results published in US10800739B2, “4-carboxamido-isoindolinone derivatives as selective PARP-1 inhibitors” (NERVIANO MEDICAL SCIENCES S.r.l, priority 2012, dated 2020).

By UniProt entry, the sequences of proteins in these tests, tags left out. Where a name states a change or a piece, a line headed by the entry shows the natural chain unless it says otherwise.
UniProt Q9UGN5: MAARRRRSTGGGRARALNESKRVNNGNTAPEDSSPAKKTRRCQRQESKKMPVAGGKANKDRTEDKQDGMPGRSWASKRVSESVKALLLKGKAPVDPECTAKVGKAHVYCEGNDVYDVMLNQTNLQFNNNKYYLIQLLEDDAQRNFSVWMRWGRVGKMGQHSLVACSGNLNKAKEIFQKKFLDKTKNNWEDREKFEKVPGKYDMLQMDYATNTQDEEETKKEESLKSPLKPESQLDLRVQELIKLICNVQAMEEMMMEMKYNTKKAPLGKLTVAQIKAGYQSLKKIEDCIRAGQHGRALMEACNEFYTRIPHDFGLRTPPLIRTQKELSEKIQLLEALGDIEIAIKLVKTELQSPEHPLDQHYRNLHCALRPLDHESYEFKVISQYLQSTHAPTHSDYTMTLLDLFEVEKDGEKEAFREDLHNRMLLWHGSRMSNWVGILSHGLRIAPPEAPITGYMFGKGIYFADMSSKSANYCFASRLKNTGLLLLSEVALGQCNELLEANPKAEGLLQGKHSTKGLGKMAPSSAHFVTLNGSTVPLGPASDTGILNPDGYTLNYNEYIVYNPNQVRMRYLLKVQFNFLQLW

Molecular target: PARP-2 (Homo sapiens (Human), UniProt Q9UGN5)
Test: Fluorescence polarization displacement assay with probe of formula (IP), PARP-2
Type: binding
Settings: read-out: PARP-2 (DC50 μM); probe P1

Row | Structure (SMILES) | DC50 [µM]
1 | CN1CCN(CCCN2Cc3cccc(C(N)=O)c3C2=O)CC1 [(21), 2-[3-(4-methyl-piperazin-1-yl)-propyl]-3-oxo-2,3-dihydro-1H-isoindole-4-carboxylic Acid Amide] | > 10
2 | NC(=O)c1cccc2c1C(=O)N(CCCN1CCC(N3CCCCC3)CC1)C2 [(26), 2-(3-[1,4′]bipiperidinyl-1′-yl-propyl)-3-oxo-2,3-dihydro-1H-isoindole-4-carboxylic Acid Amide Dihydrochloride] | > 10
3 | NC(=O)c1cccc2c1C(=O)N(C1CCN(Cc3ccccc3)CC1)C2 [(30), 2-(1-benzyl-piperidin-4-yl)-3-oxo-2,3-dihydro-1H-isoindole-4-carboxylic Acid Amide] | > 10

These reach a lower DC50. Values come first.

Row | DC50 [µM] | Structure (SMILES)
4 | 1.92 | NC(=O)c1cccc2c1C(=O)N(CCN1CCCCC1)C2 [(4), 3-oxo-2-(2-piperidin-1-yl-ethyl)-2,3-dihydro-1H-isoindole-4-carboxylic Acid Amide]
5 | 1.64 | NC(=O)c1cccc2c1C(=O)N(CCN1CCOCC1)C2 [(5), 2-(2-morpholin-4-yl-ethyl)-3-oxo-2,3-dihydro-1H-isoindole-4-carboxylic Acid Amide]

Structures can show the parent of a compound that is named as a salt.
